Source: ChEMBL document CHEMBL3832072
Several values for one entry are separate records, joined by “and”; a condition that tells them apart may be missing. Equal values may be shown once. Only a part of the results on these compounds is given; other tests are left out.

Test system: Homo sapiens
Test: Evaluation of pharmacokinetic parameters for Fentanyl following first 72-hour topical application of a Fentanyl transdermal system
Details: in vivo, topical_or_ocular

Q: With `CCC(=O)N(c1ccccc1)C1CCN(CCc2ccccc2)CC1` as the compound, how does the Tmax read?
A: The Tmax was 34.8 h and 33.5 h and 36.8 h.
